The numbers were not newly measured in US8680142B2, “Ascorbate, vitamin K3 and hydroxytolans in the treatment of cancer” (Kent State University, priority 2007, dated 2014), which cites them from elsewhere.

The data set relates to Mice. Conditions: oral 500 mg/Kg daily over 30 days; cited from earlier work.

For `CC1=CC(=O)c2ccccc2C1=O` [VK3, 2-methyl-1,4-naphthoquinone], the chronic toxicity result is “toxic”.
